Assay outcomes: PubChem BioAssay, several laboratories
MC4R ag barr: human MC4R agonism via beta-arrestin; P32245; U2OS MC4R beta-arrestin complementation, luminescence; percent of melanotan II response, DMSO zero; activation, % at 8.9 µM; actives 0.98% (n = 360,000);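 active = activation above a per-plate cutoff, the mean activation of sample wells on that plate plus 3 SD, cut at about 8% in these data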
MC4R antagonist: antagonists of human melanocortin 4 receptor (MC4R); P32245; inhibition, % at 6.5 µM; MC4R-expressing cells, MTII-stimulated cAMP, LANCE TR-FRET; actives 0.48% (n = 360,000); AID 540295;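 active = inhibition above its plate's cutoff, the mean of tested wells on that plate plus 3 SD, cut at about 29% in these data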;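 also: 0% = Melanotan II alone and 100% = Melanotan II plus saturating MCL0020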
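Material – human MC4R-expressing U2OS cells · Repeats – no replicates · Detection – TR-FRET with Eu-cAMP and labeled anti-cAMP, 671 nm · Times – compound 30 min, challenge 1 h, detection 1 h · Compound – single nominal compound dose of 6.5 µM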
NALP1 inh: NALP1 inhibition; S. cerevisiae NALP1/ASC/caspase-1 growth, X-gal OD620, 72 h; inhibition, % at 10 µM; actives 0.61% (n = 280,000); AID 2071; in the data active = inhibition mostly above about 24%, no sharp cut-off; inactive = mostly below about 32%
Yeast UUG start-1: alters start codon recognition fidelity in yeast. S. cerevisiae UUG-firefly luciferase reporter, luminescence/redox ratio. 350,000 tested, 0.13% active. activity score, % at 18.7 µM. AID 602363;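 active means replicate mean at a twofold rise or more, about +100% in these data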;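 further: firefly luciferase made from a UUG start codon reports start codon fidelity; reporter light over untreated wells divided by growth signal over untreated wells; some hits fall short of that in this replicate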
HDAC3 inhib: inhibitors of human histone deacetylase 3. inhibition, % at 8.3 µM. AID 2718. O15379. actives 0.15% (n = 320,000). recombinant HDAC3, fluorogenic peptide/trypsin coupled, fluorescence; in the data active = inhibition above about 26%, passing the limit was not always enough
ALR inh: human ALR oxidase inhibition via reduced H2O2. 290,000 tested, 3.8% active. AID 485317. purified ALR, DTT oxidation, H2O2 HRP-luminol luminescence. inhibition, % (test concentration not listed). P55789;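 active = mean and each replicate at 75% or more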;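 also: stock transfer was 7.5 nL into about 7.5 µL; 0% = neutral wells and 100% = wells with inactivated enzyme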
Yeast UUG start-2: yeast start codon fidelity modulation; shares compounds with Yeast UUG start-1; S. cerevisiae UUG-start firefly luciferase, luminescence, 4 h; 100% means double the DMSO signal; activation, % at 38 µM; 540 tested, under 10 active;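 active = signal increase whose fitted curve reaches an absolute level of 40 at a concentration under 10 µM; inactive = activity opposite to the expected increase, or the rest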
Starred values were filed as active, the others as inactive; i = inactive; . = no result. Sampled rows, rich in hits. Any-hit rate of the full collection: about 4.2%.

SMILES | MC4R ag barr | MC4R antagonist | NALP1 inh | Yeast UUG start-1 | HDAC3 inhib | ALR inh | Yeast UUG start-2
COc1cc(OC)c(OC)cc1/C=N/NC(=O)c1ccc2nc[nH]c2c1 | 0.9 | -13.2 | 9.5 | . | 12.6 | -4.2 | .
C[C@@H]1CN([C@@H](C)CO)S(=O)(=O)c2ccc(C#Cc3ccncc3)cc2O[C@H]1CN(C)S(=O)(=O)c1ccccc1 | . | . | . | -1.9 | . | . | .
Cc1ccc(-c2ccc3c(c2)O[C@H](CN(C)C(=O)Nc2ccccc2)[C@H](C)CN([C@H](C)CO)S3(=O)=O)cc1 | . | . | . | 122.3* | . | . | i
CCCC#Cc1ccc2c(c1)O[C@@H](CN(C)C)[C@@H](C)CN([C@H](C)CO)S2(=O)=O | . | . | . | 127.6* | . | . | i
CC(C)C#Cc1ccc2c(c1)O[C@@H](CN(C)C(=O)CC1CC1)[C@H](C)CN([C@H](C)CO)S2(=O)=O | . | . | . | 70.3* | . | . | i
C[C@H]1CN([C@@H](C)CO)S(=O)(=O)c2ccc(C#Cc3ccncc3)cc2O[C@@H]1CN(C)S(=O)(=O)c1ccccc1 | . | . | . | 125.5* | . | . | i
O=C(Nc1ccc(Cl)c(Cl)c1)N[C@@H]1CC[C@H](CCn2cc(C3CCCCC3)nn2)O[C@@H]1CO | . | . | . | -11.8 | . | . | .
CCCNC(=O)C[C@H]1CC[C@H]2[C@@H](COc3ccc(NC(=O)c4ccccc4)cc3C(=O)N2C)O1 | . | . | . | 2.3 | . | . | .
Cc1noc(C)c1NC(=O)N(C)C[C@H]1Oc2ccc(NC(=O)NC(C)C)cc2C(=O)N([C@@H](C)CO)C[C@H]1C | . | . | . | -19.2 | . | . | .
Cc1noc(C)c1NC(=O)N(C)C[C@H]1Oc2ccc(NC(=O)NC3CCCCC3)cc2C(=O)N([C@@H](C)CO)C[C@@H]1C | . | . | . | 3.3 | . | . | .
CCCC#Cc1ccc2c(c1)O[C@@H](CN(C)C(=O)CN(C)C)[C@H](C)CN([C@H](C)CO)S2(=O)=O | . | . | . | 149.6* | . | . | i
COc1ccccc1NC(=O)N(C)C[C@H]1Oc2cc(Br)ccc2S(=O)(=O)N([C@@H](C)CO)C[C@@H]1C | . | . | . | 161.7* | . | . | i
CCCC#Cc1ccc2c(c1)O[C@H](CN(C)Cc1cncnc1)[C@@H](C)CN([C@@H](C)CO)S2(=O)=O | . | . | . | 80.4* | . | . | i
CCCC#Cc1ccc2c(c1)O[C@@H](CN(C)C(=O)CN(C)C)[C@H](C)CN([C@@H](C)CO)S2(=O)=O | . | . | . | 3.0 | . | . | .
C[C@H](CO)N1C[C@H](C)[C@H](CN(C)C(=O)C2CCCCC2)Oc2cc(-c3cncnc3)ccc2S1(=O)=O | . | . | . | 15.8 | . | . | .
C[C@H]1CN([C@@H](C)CO)S(=O)(=O)c2ccc(-c3cncnc3)cc2O[C@@H]1CN(C)C(=O)C1CCCCC1 | . | . | . | 254.2* | . | . | i
CCCC#Cc1ccc2c(c1)O[C@@H](CN(C)Cc1cccnc1)[C@@H](C)CN([C@H](C)CO)S2(=O)=O | . | . | . | -9.1 | . | . | .
CN(C)C(=O)C[C@@H]1CC[C@H]2[C@@H](COc3ccc(NC(=O)C4CCOCC4)cc3C(=O)N2C)O1 | . | . | . | -1.0 | . | . | .
Cc1ccc(S(=O)(=O)Nc2ccc3c(c2)C(=O)N([C@@H](C)CO)C[C@@H](C)[C@H](CN(C)C(=O)Nc2ccc(F)cc2)O3)cc1 | . | . | . | -3.2 | . | . | .
C[C@H]1CN([C@@H](C)CO)S(=O)(=O)c2ccc(-c3cncnc3)cc2O[C@@H]1CN(C)Cc1ccccn1 | . | . | . | 0.5 | . | . | .
Cc1ccc(-c2ccc3c(c2)O[C@@H](CN(C)Cc2cncnc2)[C@@H](C)CN([C@H](C)CO)S3(=O)=O)cc1 | . | . | . | 135.1* | . | . | i
C/C=C/c1ccc2c(c1)O[C@H](CN(C)CCC)[C@H](C)CN([C@H](C)CO)S2(=O)=O | . | . | . | 75.4* | . | . | i
CNC[C@H]1Oc2cc(C#Cc3ccc(F)cc3)ccc2S(=O)(=O)N([C@H](C)CO)C[C@@H]1C | . | . | . | -0.4 | . | . | .
C/C=C/c1ccc2c(c1)O[C@@H](CN(C)CCC)[C@@H](C)CN([C@@H](C)CO)S2(=O)=O | . | . | . | -15.6 | . | . | .
C[C@H](CO)N1C[C@H](C)[C@H](CN(C)Cc2ccccn2)Oc2cc(-c3cncnc3)ccc2S1(=O)=O | . | . | . | 124.2* | . | . | i
CNC[C@H]1Oc2cc(C#Cc3ccccc3F)ccc2S(=O)(=O)N([C@H](C)CO)C[C@@H]1C | . | . | . | 137.1* | . | . | i
